{"source": "paper PMC2970562", "about": "“High-Affinity Inhibitors of Human NAD^+-Dependent 15-Hydroxyprostaglandin Dehydrogenase: Mechanisms of Inhibition and Structure-Activity Relationships” (PLoS ONE, 2010)", "type_in_all_cases": "biochemical", "key": {"[1]": {"target": "T1, human 15-PGDH (Homo sapiens, UniProt P15428)", "T1 construct": "comprising residues 3–256 of the human HPGD gene (GenBank identifier: 1203982); His6 (GHHHHHH, behind the TEV site) (C, cleaved yes); made in house; host or cells: E. coli BL21(DE3)-R3", "T1 sequence (P15428 3-256)": "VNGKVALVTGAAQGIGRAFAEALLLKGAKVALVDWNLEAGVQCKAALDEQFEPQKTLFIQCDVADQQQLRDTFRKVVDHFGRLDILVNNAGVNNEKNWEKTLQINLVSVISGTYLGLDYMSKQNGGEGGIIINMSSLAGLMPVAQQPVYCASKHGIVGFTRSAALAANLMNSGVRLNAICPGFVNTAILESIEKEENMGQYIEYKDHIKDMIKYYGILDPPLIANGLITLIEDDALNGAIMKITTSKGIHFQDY", "test": "Compound titrations of re-synthesized inhibitors in the kinetic assay", "experimental": "Kinetic studies were performed in 100 mM Tris buffer pH 8.0, containing 0.01% Tween-20 and 10 nM 15-PGDH enzyme. […] All inhibitor compounds were dissolved in 10% (v/v) DMSO at varying concentrations from which they were applied at 1∶5 ratio (resulting in a final concentration of 2% (v/v) DMSO in all assays). For each experiment an aliquot of purified enzyme was thawed freshly and pre-diluted to 10 µM in buffer I (5 mM Tris/HCl, pH 8.0, 150 mM NaCl, 0.01% Tween-20). All experiments were performed in white 384-well PCR microplates (Bio-Rad Laboratories, Inc.) in final assay volumes of 20 µL. Twelve-point compound titrations were set up from serially diluted stock solutions in 10% (v/v) DMSO. […] The initial rates recorded in compound titrations were plotted against -log[compound], and non-linear regression (Levenberg-Marquardt) fitting of the dose-response curve to the Hill equation [47] was performed to derive the IC50, using PRISM 5.0 (GraphPad Software, Inc.). For substrate/cofactor titrations, curves with initial rates plotted against the concentration of substrate or cofactor were fitted to the Michaelis-Menten equation, to derive maximal activities, V max, and Michaelis constants, K m. Fitting qualities were judged from the goodness of fit (R^2>0.98)."}, "[2]": {"target": "T1, human 15-PGDH", "test": "Substrate (PGE2) and cofactor (NAD+) titrations, mechanism of action, global fitting", "settings": "inhibitor 10.0 nM", "experimental": "The Michaelis constant, K m, for PGE2 was calculated from the data as 5.5±0.6 µM, comparing favorably with previously published values, [35], [36]. […] Global fitting of the results to the four possible modes of inhibition (competitive, uncompetitive, noncompetitive and mixed-type inhibition) returned the highest probability for the mixed-type mode (Table 2). However, the fitting results are also consistent with a competitive mode for inhibition by compound 61, particularly when the residual Chi^2 value for this mode is compared to those of the other two compounds.\nKinetic studies were performed in 100 mM Tris buffer pH 8.0, containing 0.01% Tween-20 and 10 nM 15-PGDH enzyme. NAD^+ and PGE2 were applied from stock concentrations of 100 or 2 mM, respectively, in 500 mM Tris/HCl, pH 8.0. […] Experiments comprising substrate titrations, from serially diluted stock solutions in buffer I, were started by injection of buffer I containing enzyme and NAD^+, while cofactor titrations were set up in assay buffer containing 30 µM PGE2 substrate and started by injection of enzyme in buffer I. The reduction of NAD^+ was followed by monitoring fluorescence emission at 460 nm, excited at 355 nm (10 nm bandwidth filters, PolarStar Omega, BMG Labtech GmbH), at a reading frequency of 22 s/point or 12 s/point for compound- or substrate/cofactor titrations, respectively. […]"}, "[3]": {"target": "T1, human 15-PGDH", "test": "qHTS and 24-point re-test: fluorescence assay of NAD+ reduction to NADH on PGE2 oxidation (PubChem AID 894)", "experimental": "To screen for inhibitors in a high-throughput format, we adopted the standard assay used for this enzyme which involved monitoring the increase in sample fluorescence corresponding to the conversion of the non-fluorescent NAD^+ cofactor into the fluorescent NADH upon oxidation of the 15-PGDH substrate 15-hydroxyprostaglandin type-E2 (PGE2) (Figure 1). The assay was miniaturized to a 4-µL volume in 1536-well format: enzyme (3 µL) was dispensed first, followed by a pintool transfer of library compounds dissolved in DMSO. After equilibration, a substrate dispense (1 µL) initiated the enzymatic reaction (see Materials and Methods, for detailed protocol description). A robotic validation run consisting of a concentration-response screen of the LOPAC^1280 library, performed in triplicate, yielded excellent assay statistics and hit reproducibility (supplementary information Figures S1A and S1B). […] Similarly, the collection of real-time kinetic data allowed the autofluorescence of each compound to be evaluated by comparing the initial fluorescence read at top concentration with the mean value of uninhibited assay controls: compounds whose top-concentration initial well fluorescence exceeded six standard deviations over the mean were flagged as potential autofluorescent artifacts, [28] […]"}}, "note": "Values joined by “and” are separate entries in the source; they are usually repeats but may differ in a detail not shown here. Equal entries are not always repeated.", "data": [{"smiles": "N#Cc1ccccc1CSc1nc2cc(Br)c[nH]c-2n1", "note": "[Compound 61]", "values": [{"measurement": "IC50", "setting": "[1]; 10 nM 15-PGDH, 30 µM PGE2, 200 µM NAD+, 25°C, lower percent substrate conversion, read-out: IC50, re-synthesized compounds", "value": "26.4 ± 2.4", "unit": "nM"}, {"measurement": "Ki", "setting": "[1]; from observed IC50 assuming competitive inhibition with respect to PGE2, read-out: inhibition constant, K i", "value": "~5 nM and 5 nM"}, {"measurement": "Titration of PGE2 k cat[1/sec]", "setting": "[2]", "value": "14.1 ± 0.2", "unit": "s⁻¹"}, {"measurement": "IC50", "setting": "[3]", "value": 141, "unit": "nM"}]}]}
